Test results taken from paper PMC11312515, “Biochemical and Structural Characterization of a Novel Psychrophilic Laccase (Multicopper Oxidase) Discovered from Oenococcus oeni 229 (ENOLAB 4002)” (International Journal of Molecular Sciences, 2024).

Protein sequences, listed by entry. Tags and fused reporters are not part of them. Residues count along the entry.
UniProt Q04HQ8, 1-488: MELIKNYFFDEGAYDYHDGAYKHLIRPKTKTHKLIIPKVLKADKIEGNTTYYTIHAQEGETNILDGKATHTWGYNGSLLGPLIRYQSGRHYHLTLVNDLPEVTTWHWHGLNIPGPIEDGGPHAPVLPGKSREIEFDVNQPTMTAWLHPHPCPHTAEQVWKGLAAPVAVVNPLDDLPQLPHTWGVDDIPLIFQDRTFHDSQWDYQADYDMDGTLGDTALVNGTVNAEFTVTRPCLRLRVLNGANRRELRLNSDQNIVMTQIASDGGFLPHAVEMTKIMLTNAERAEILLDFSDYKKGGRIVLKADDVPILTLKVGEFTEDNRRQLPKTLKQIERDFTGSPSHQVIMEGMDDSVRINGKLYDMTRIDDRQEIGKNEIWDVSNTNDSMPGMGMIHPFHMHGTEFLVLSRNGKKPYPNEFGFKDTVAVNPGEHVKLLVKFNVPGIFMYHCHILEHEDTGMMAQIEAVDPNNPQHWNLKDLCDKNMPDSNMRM

Molecular target: LcOe 229 (Oenococcus oeni, UniProt Q04HQ8)
Test: ABTS oxidation at OD420, […] min, residual activity
Conditions: 2 mM ABTS, 0.1 mM CuSO4, McIlvaine buffer pH 2.5

How did the “% residual activity at 1 mM” value turn out when `[N-]=[N+]=N` was run?
The value was less than 15%.
